Results published in patent publication US20260384438A1, “PYRROLOPYRIMIDINE CARBOXAMIDES” (published 2026).

Amino acid sequences for entries named in this document (tags omitted). Residues count along the entry.
UniProt P54753, 34-998 limits assumed: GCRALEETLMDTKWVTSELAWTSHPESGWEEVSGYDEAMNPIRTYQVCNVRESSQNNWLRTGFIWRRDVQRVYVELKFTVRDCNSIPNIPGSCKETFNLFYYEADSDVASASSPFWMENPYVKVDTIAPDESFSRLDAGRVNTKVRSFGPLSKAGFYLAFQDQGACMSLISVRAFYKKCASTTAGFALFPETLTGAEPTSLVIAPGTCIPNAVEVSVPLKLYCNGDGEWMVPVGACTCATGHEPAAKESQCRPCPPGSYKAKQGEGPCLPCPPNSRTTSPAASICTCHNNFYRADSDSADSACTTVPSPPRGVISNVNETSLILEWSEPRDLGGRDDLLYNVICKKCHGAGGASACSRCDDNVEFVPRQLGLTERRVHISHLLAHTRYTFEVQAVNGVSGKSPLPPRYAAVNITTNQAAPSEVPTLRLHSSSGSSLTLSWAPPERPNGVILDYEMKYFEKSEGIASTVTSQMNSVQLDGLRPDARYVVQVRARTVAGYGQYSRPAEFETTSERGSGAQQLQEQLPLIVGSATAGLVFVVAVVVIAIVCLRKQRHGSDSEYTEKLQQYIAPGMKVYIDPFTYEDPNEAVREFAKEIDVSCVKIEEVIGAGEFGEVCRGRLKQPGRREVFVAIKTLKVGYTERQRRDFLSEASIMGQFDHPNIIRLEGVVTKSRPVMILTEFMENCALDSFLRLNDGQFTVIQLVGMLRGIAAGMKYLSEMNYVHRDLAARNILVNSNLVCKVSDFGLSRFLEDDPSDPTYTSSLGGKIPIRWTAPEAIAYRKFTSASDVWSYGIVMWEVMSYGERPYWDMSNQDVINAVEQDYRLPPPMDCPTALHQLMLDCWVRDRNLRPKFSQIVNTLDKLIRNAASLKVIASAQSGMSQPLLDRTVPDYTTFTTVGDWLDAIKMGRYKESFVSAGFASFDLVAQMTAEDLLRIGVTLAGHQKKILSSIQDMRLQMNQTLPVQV
UniProt P30291, whole entry: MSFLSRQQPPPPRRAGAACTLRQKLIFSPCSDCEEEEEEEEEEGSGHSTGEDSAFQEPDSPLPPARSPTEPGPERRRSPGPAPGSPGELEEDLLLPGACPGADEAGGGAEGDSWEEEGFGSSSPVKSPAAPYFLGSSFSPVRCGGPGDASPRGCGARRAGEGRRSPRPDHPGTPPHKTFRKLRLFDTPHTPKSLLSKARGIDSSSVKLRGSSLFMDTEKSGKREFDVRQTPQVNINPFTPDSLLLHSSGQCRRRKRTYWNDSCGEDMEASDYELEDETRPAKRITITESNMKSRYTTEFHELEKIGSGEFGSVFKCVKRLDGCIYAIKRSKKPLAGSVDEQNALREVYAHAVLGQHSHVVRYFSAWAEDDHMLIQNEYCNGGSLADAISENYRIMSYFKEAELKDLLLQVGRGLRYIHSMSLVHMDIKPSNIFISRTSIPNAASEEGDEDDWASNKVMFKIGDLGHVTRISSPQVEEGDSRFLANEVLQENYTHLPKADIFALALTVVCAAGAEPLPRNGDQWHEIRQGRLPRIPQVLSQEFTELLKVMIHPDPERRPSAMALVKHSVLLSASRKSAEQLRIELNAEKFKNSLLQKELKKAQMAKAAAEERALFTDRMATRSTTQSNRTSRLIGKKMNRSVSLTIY
UniProt Q99640, whole entry: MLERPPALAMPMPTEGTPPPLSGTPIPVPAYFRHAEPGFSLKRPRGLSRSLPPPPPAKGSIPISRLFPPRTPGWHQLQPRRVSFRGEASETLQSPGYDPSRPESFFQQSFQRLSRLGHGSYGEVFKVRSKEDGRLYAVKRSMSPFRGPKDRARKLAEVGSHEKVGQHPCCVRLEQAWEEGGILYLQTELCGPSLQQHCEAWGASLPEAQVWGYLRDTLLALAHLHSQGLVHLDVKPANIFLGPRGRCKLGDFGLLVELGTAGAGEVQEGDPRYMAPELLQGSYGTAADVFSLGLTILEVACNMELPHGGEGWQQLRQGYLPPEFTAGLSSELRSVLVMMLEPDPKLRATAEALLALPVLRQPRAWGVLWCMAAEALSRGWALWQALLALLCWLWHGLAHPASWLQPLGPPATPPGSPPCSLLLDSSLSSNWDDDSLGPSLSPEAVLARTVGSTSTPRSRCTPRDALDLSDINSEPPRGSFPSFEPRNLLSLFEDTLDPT

Key:
Caco-2 cell permeability = details: 10 μM; for Caco-2 A-B Papp: 2 h, 37 °C; for Caco-2 EFFLUX RATIO: Papp(B to A)/Papp(A to B)
OVCAR3 cells = assay: Cellular proliferation (Hoechst staining), OVCAR3; details: read-out: OVCAR3 GI50; CCNE1-amplified, 4 days
[1] = Metabolic stability in human hepatocytes in suspension (hHEP); details: 1 μM
EPHB3 = EPHB3 (Homo sapiens, UniProt P54753); assay: NanoBRET target engagement in HEK293T cells, EPHB3; details: read-out: EPHB3 INHIBITION IC50, 2 h
[2] = Metabolic stability in human liver microsomes (HLM); details: human liver microsomes 1 mg/mL, 1 μM
WEE1 = WEE1 (Homo sapiens, UniProt P30291); assay: NanoBRET target engagement in HEK293T cells, WEE1; details: read-out: WEE1 INHIBITION IC50, 2 h
PKMYT1 = PKMYT1 (Homo sapiens, UniProt Q99640); assay: NanoBRET target engagement in HEK293T cells, PKMYT1; details: read-out: PKMYT1 INHIBITION IC50, 2 h
SKOV3 cells = assay: Cellular proliferation (Hoechst staining), SKOV3; details: read-out: SKOV3 GI50; CCNE1-nonamplified, 4 days
OVCAR3 tumors = assay: Human ovarian OVCAR3 cell line-derived xenograft model in female SCID mice; details: 20 mg/kg Gemcitabine intraperitoneal once weekly
[3] = Aqueous (thermodynamic) solubility, pH 7.4; details: 0.1 M phosphate buffer pH 7.4, 24 h, 25 °C
[4] = molecular target: CDK1 pThr14 (PKMYT1 substrate), FUOV-1 cells (Homo sapiens, UniProt Q99640); assay: Functional CDK1 pThr14 AlphaLISA assay in FUOV-1 cells; details: read-out: pCDk1(Thr14) INHIBITION IC50, 2 h
Log D octanol/PBS pH 7.4 = details: octanol/PBS pH 7.4, 1 μM

## Cc1ccc(O)c(C)c1-n1c(N)c(C(N)=O)c2cnc(Cl)nc21 (single isomer, unassigned) [57, Isomer 2]
Caco-2 cell permeability
  Caco-2 A-B Papp: 11.238 1E−6.cm/s
  Caco-2 EFFLUX RATIO: 7.97
OVCAR3 cells
  GI50: 3980 nM
[1]
  Hhep (CLint): 1.072 μl/min/1E6
EPHB3
  IC50: 1250 nM
[2]
  HLM (CLint): 10.481 µL/min/mg
WEE1
  IC50: > 10000 nM
PKMYT1
  IC50: 11 nM
SKOV3 cells
  GI50: > 30000 nM

## Nc1ccn([C@@H]2O[C@H](CO)[C@@H](O)C2(F)F)c(=O)n1
OVCAR3 tumors
  TGI vs vehicle (Day 21): 63%

## Cc1nc(C)c2c(C(N)=O)c(N)n(-c3c(C)ccc(O)c3C)c2n1 (racemic)
Caco-2 cell permeability
  Caco-2 A-B Papp: 4.366 1E−6.cm/s
  Caco-2 EFFLUX RATIO: 12.2
OVCAR3 cells
  GI50: 6120 nM
EPHB3
  IC50: > 6800 nM
[2]
  HLM (CLint): <3.000 µL/min/mg
WEE1
  IC50: > 9970 nM
PKMYT1
  IC50: 63 nM
SKOV3 cells
  GI50: > 30000 nM
[3]
  Solubility pH 7.4: 395 μM
[4]
  IC50: 228 nM
Log D octanol/PBS pH 7.4
  LogD: 0.8

## Cc1ccc(O)c(C)c1-n1c(N)c(C(N)=O)c2cnc(N3CCOCC3)nc21 (racemic)
Caco-2 cell permeability
  Caco-2 A-B Papp: 18.249 1E−6.cm/s
  Caco-2 EFFLUX RATIO: 23.3
OVCAR3 cells
  GI50: 8640 nM
EPHB3
  IC50: 88 nM
[2]
  HLM (CLint): 15.462 µL/min/mg
WEE1
  IC50: > 9970 nM
PKMYT1
  IC50: 24 nM
SKOV3 cells
  GI50: > 23000 nM
[3]
  Solubility pH 7.4: >1000 μM
[4]
  IC50: 313 nM
Log D octanol/PBS pH 7.4
  LogD: 2.01

## Cc1ccc(O)c(C)c1-n1c(N)c(C(N)=O)c2cnc(N3CCOCC3)nc21 (single isomer, unassigned) [47, Isomer 2]
Caco-2 cell permeability
  Caco-2 A-B Papp: 16.855 1E−6.cm/s
  Caco-2 EFFLUX RATIO: 14.6
OVCAR3 cells
  GI50: > 30000 nM
EPHB3
  IC50: 6880 nM
[2]
  HLM (CLint): 15.138 µL/min/mg
WEE1
  IC50: > 9970 nM
PKMYT1
  IC50: 1040 nM
SKOV3 cells
  GI50: > 30000 nM
[4]
  IC50: > 9910 nM

## Cc1nc(C(F)F)c2c(C(N)=O)c(N)n(-c3c(C)ccc(O)c3C)c2n1 (single isomer, unassigned)
Caco-2 cell permeability
  Caco-2 A-B Papp: 21.006 1E−6.cm/s
  Caco-2 EFFLUX RATIO: 3.8
OVCAR3 cells
  GI50: 4900 nM
[1]
  Hhep (CLint): <1.000 μl/min/1E6
EPHB3
  IC50: 3100 nM
[2]
  HLM (CLint): <3.000 µL/min/mg
WEE1
  IC50: > 9970 nM
PKMYT1
  IC50: 16 nM
SKOV3 cells
  GI50: > 29900 nM
[3]
  Solubility pH 7.4: >1000 μM
[4]
  IC50: 145 nM
Log D octanol/PBS pH 7.4
  LogD: 1.18

## CCc1ncc2c(n1)c(-c1cc(O)ccc1C)c(N)n2C(N)=O (single isomer, unassigned) [49, Isomer 1]
Caco-2 cell permeability
  Caco-2 A-B Papp: 8.018 1E−6.cm/s
  Caco-2 EFFLUX RATIO: 11.9
OVCAR3 cells
  GI50: 3070 nM
[1]
  Hhep (CLint): <1.000 μl/min/1E6
EPHB3
  IC50: 796 nM
[2]
  HLM (CLint): 12.016 µL/min/mg
WEE1
  IC50: > 9960 nM
PKMYT1
  IC50: 10 nM
SKOV3 cells
  GI50: 24100 nM
[4]
  IC50: 127 nM

## Cc1nc(C2CC2)c2c(C(N)=O)c(N)n(-c3c(C)ccc(O)c3C)c2n1 (single isomer, unassigned)
Caco-2 cell permeability
  Caco-2 A-B Papp: 35.644 1E−6.cm/s
  Caco-2 EFFLUX RATIO: 2.43
OVCAR3 cells
  GI50: 1780 nM
[1]
  Hhep (CLint): 4.441 μl/min/1E6
EPHB3
  IC50: 1890 nM
[2]
  HLM (CLint): 19.567 µL/min/mg
WEE1
  IC50: > 9970 nM
PKMYT1
  IC50: 10 nM
SKOV3 cells
  GI50: > 10600 nM
[3]
  Solubility pH 7.4: >958 μM
[4]
  IC50: 28 nM
Log D octanol/PBS pH 7.4
  LogD: 1.87

## Cc1ncc2c(C(N)=O)c(N)n(-c3c(Cl)ccc(O)c3C)c2n1 (single isomer, unassigned) [73, Isomer 1]
Caco-2 cell permeability
  Caco-2 A-B Papp: 4.046 1E−6.cm/s
  Caco-2 EFFLUX RATIO: 18.5
OVCAR3 cells
  GI50: 503 nM
[1]
  Hhep (CLint): 3.392 μl/min/1E6
EPHB3
  IC50: 2720 nM
WEE1
  IC50: 2530 nM
PKMYT1
  IC50: 11 nM
SKOV3 cells
  GI50: 4150 nM
[4]
  IC50: 68 nM

## Cc1ccc(O)c(C)c1-n1c(N)c(C(N)=O)c2cnc(N3CCN(C)CC3)nc21 (single isomer, unassigned) [70, Isomer 1]
Caco-2 cell permeability
  Caco-2 A-B Papp: 4.047 1E−6.cm/s
  Caco-2 EFFLUX RATIO: 5.58
OVCAR3 cells
  GI50: 5770 nM
[1]
  Hhep (CLint): <1.000 μl/min/1E6
EPHB3
  IC50: 103 nM
[2]
  HLM (CLint): 10.024 µL/min/mg
WEE1
  IC50: > 10000 nM
PKMYT1
  IC50: 16 nM
SKOV3 cells
  GI50: > 17000 nM
[4]
  IC50: 115 nM
